Where two headings read alike, the source gives them in different places. Marks after values point to notes of the source that are not given here. Blank lines part the entries; values can stand above or below the compound they belong to.
Experiments:
OCT2 (SLC22A2) [1] = biological target: T1, OCT2 (SLC22A2) (Homo sapiens, UniProt O15244)
T1 sequence (O15244 1-555): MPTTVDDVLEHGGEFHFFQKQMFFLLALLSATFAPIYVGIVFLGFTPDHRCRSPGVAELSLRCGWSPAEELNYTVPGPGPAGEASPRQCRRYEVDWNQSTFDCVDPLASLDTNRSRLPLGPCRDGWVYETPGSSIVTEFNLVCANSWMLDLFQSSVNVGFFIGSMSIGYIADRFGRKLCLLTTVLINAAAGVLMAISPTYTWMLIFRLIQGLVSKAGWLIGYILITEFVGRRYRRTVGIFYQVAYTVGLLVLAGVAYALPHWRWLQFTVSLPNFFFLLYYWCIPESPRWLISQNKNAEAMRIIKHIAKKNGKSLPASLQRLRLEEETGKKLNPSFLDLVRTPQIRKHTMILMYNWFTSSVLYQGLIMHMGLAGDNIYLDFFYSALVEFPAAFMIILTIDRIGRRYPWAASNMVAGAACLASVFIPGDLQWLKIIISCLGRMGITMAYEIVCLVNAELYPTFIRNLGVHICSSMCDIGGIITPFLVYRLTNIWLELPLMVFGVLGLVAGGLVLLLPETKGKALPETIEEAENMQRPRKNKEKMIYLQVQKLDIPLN

OCT1 (SLC22A1) [2] = biological target: T2, OCT1 (SLC22A1) (Homo sapiens, UniProt O15245)
T2 sequence (O15245 1-554): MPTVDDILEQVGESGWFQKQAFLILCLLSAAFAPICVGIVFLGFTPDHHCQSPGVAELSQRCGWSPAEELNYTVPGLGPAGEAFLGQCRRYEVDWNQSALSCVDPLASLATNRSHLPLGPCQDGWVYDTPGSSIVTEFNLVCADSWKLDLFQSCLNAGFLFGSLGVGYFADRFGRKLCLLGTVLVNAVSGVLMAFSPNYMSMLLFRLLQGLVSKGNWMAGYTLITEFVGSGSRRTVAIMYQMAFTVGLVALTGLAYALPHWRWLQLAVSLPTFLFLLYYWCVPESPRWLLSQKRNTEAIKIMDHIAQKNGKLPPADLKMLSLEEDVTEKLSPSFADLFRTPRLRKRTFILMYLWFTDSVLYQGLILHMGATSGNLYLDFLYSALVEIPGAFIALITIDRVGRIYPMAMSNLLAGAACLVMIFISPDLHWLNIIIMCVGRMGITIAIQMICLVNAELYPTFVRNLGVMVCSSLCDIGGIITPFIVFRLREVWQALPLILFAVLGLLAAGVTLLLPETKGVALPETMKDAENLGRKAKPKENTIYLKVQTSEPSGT

MATE1 (SLC47A1) [3] = biological target: T3, MATE1 (SLC47A1) (Homo sapiens, UniProt Q96FL8)
T3 sequence (Q96FL8 1-570): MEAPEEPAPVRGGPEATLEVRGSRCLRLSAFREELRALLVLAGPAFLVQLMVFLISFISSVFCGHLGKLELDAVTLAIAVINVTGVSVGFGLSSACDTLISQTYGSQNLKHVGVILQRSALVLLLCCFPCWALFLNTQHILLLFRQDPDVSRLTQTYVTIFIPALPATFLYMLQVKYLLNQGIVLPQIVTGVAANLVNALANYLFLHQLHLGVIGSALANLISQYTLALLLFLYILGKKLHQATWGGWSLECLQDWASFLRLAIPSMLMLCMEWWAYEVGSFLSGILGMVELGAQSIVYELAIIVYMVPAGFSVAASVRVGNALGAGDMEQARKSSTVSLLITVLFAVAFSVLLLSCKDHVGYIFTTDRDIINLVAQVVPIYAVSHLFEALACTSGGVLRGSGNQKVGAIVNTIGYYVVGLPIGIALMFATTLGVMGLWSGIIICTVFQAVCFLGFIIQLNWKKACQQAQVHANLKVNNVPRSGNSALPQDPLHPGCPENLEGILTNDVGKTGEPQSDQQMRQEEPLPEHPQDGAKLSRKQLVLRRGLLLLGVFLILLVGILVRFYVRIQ

OCT2 (SLC22A2) [4] = biological target: T1, OCT2 (SLC22A2); test: Cellular uptake into OCT2-overexpressing HEK293 cells vs EV control cells (HPLC-MS/MS)
OCT1 (SLC22A1) [5] = biological target: T2, OCT1 (SLC22A1); test: Cellular uptake into OCT1-overexpressing HEK293 cells vs EV control cells (HPLC-MS/MS)
MATE2-K (SLC47A2) [6] = biological target: T4, MATE2-K (SLC47A2) (Homo sapiens, UniProt Q86VL8); test: Cellular uptake into MATE2-K-overexpressing HEK293 cells vs EV control cells (HPLC-MS/MS)
T4 sequence (Q86VL8 1-566 isoform Q86VL8-3): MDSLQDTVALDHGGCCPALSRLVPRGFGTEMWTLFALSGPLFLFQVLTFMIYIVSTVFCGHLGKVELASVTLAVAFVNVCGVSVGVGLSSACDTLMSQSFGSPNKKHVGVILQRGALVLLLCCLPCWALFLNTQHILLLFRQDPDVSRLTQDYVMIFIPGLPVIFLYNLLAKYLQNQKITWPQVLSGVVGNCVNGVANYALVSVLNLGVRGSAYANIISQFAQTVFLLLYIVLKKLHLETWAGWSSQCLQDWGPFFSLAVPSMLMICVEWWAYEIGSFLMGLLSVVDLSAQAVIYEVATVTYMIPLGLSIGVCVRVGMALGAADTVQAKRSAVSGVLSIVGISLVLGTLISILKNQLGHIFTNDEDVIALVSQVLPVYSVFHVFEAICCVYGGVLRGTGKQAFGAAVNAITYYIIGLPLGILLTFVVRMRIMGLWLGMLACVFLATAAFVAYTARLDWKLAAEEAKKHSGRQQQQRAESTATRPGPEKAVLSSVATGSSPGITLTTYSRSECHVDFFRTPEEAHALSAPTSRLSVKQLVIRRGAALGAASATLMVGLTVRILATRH

MATE1 (SLC47A1) [7] = biological target: T3, MATE1 (SLC47A1); test: Cellular uptake into MATE1-overexpressing HEK293 cells vs EV control cells (HPLC-MS/MS)
OCT3 (SLC22A3) = biological target: T5, OCT3 (SLC22A3) (Homo sapiens, UniProt O75751); test: Cellular uptake into OCT3-overexpressing HEK293 cells vs EV control cells (HPLC-MS/MS); settings: 10 μM substrate, 2 min
T5 sequence (O75751 1-556): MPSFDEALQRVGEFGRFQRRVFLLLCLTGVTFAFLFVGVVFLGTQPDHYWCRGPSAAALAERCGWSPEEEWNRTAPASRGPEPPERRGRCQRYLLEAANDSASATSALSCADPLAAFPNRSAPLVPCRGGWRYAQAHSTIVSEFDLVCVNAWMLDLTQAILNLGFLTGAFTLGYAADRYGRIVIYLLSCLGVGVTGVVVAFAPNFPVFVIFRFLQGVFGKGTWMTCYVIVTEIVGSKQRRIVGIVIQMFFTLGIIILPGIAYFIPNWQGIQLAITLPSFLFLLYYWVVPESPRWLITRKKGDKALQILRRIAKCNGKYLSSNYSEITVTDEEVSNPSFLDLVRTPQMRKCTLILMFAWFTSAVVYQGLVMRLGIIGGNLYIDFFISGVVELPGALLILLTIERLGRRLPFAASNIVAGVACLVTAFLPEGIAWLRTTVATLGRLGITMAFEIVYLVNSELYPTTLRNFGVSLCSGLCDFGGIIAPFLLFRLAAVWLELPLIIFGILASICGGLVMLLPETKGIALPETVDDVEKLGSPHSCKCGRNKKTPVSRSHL

MATE2-K (SLC47A2) [8] = biological target: T4, MATE2-K (SLC47A2)

SMILES: NCCCO [3-amino-1-propanol]
uptake ratio OCT2 (transporter-overexpressing cells over EV control cells): mean (±SD, N) (OCT2 (SLC22A2) [4]): 4.0 (0.8, 4) ^b
uptake ratio OCT1 (transporter-overexpressing cells over EV control cells): mean (±SD, N) (OCT1 (SLC22A1) [5]): 1.4 (0.5, 5)
uptake ratio MATE2K (transporter-overexpressing cells over EV control cells): mean (±SD, N) (MATE2-K (SLC47A2) [6]): 1.1 (0.1, 4)
uptake ratio MATE1 (transporter-overexpressing cells over EV control cells): mean (±SD, N) (MATE1 (SLC47A1) [7]): 1.5 (0.4, 4)
uptake ratio OCT3 (transporter-overexpressing cells over EV control cells): mean (±SD, N) (OCT3 (SLC22A3)): 1.0 (0.2, 4)

SMILES: CN(CCCN)CCCN [3,3′-diamino-N-methyldipropylamin]
substrate activity at OCT2 (in words) (OCT2 (SLC22A2) [4]): did not show any substrate activity
uptake ratio OCT2 (transporter-overexpressing cells over EV control cells): mean (±SD, N) (OCT2 (SLC22A2) [4]): - ^d
uptake ratio OCT1 (transporter-overexpressing cells over EV control cells): mean (±SD, N) (OCT1 (SLC22A1) [5]; 10 μM substrate, 2 min, HEK293): - ^d
uptake ratio MATE2K (transporter-overexpressing cells over EV control cells): mean (±SD, N) (MATE2-K (SLC47A2) [6]): 1.0 (0.7, 5)
substrate activity at MATE1 (in words) (MATE1 (SLC47A1) [7]): did not show any substrate activity
uptake ratio MATE1 (transporter-overexpressing cells over EV control cells): mean (±SD, N) (MATE1 (SLC47A1) [7]): 1.7 (1.3, 5)
uptake ratio OCT3 (transporter-overexpressing cells over EV control cells): mean (±SD, N) (OCT3 (SLC22A3)): - ^d

SMILES: OCCNCCO [diethanolamine]
uptake ratio OCT2 (transporter-overexpressing cells over EV control cells): mean (±SD, N) (OCT2 (SLC22A2) [4]; 10 μM substrate, 2 min, HEK293): 0.7 (0.2, 4)
uptake ratio OCT1 (transporter-overexpressing cells over EV control cells): mean (±SD, N) (OCT1 (SLC22A1) [5]; 10 μM substrate, 2 min, HEK293): 1.2 (0.5, 4)
uptake ratio MATE2K (transporter-overexpressing cells over EV control cells): mean (±SD, N) (MATE2-K (SLC47A2) [6]; 2.5 μM substrate, 1 min, 30 mM NH4Cl preincubation, HEK293): 1.4 (0.3, 4)
uptake ratio MATE1 (transporter-overexpressing cells over EV control cells): mean (±SD, N) (MATE1 (SLC47A1) [7]): 1.0 (0.2, 4)
uptake ratio OCT3 (transporter-overexpressing cells over EV control cells): mean (±SD, N) (OCT3 (SLC22A3)): 1.2 (0.3, 4)

SMILES: C[C@@H](O)CN [(R)-(−)-1-amino-2-propanol]
stereoselectivity MATE2K (uptake ratio of the more strongly transported enantiomer divided by that of the other) (MATE2-K (SLC47A2) [8]): 1.3-fold for (R)
stereoselectivity MATE1 (uptake ratio of the more strongly transported enantiomer divided by that of the other) (MATE1 (SLC47A1) [3]): 1.1-fold for (R)

Now from value to compound:

stereoselectivity OCT2 (uptake ratio of the more strongly transported enantiomer divided by that of the other) (OCT2 (SLC22A2) [1]): 3.5-fold for(S) ^b
stereoselectivity OCT1 (uptake ratio of the more strongly transported enantiomer divided by that of the other) (OCT1 (SLC22A1) [2]): 1.2-fold for (S)
stereoselectivity MATE1 (uptake ratio of the more strongly transported enantiomer divided by that of the other) (MATE1 (SLC47A1) [3]): 1.2-fold for (S)
SMILES: C[C@H](N)CO [(S)-(+)-2-Amino-1-propanol]

stereoselectivity OCT2 (uptake ratio of the more strongly transported enantiomer divided by that of the other) (OCT2 (SLC22A2) [1]): 1.3-fold for (S)
stereoselectivity OCT1 (uptake ratio of the more strongly transported enantiomer divided by that of the other) (OCT1 (SLC22A1) [2]): 1.1-fold for (S)
SMILES: C[C@H](O)CN [(S)-(+)-1-amino-2-propanol]

Source: article PMC12340637, “Transport of Small Aliphatic Amines by Polyspecific Solute Carriers: Deciphering Structure–Function Relationships” (ACS Pharmacology & Translational Science, 2025)
